Measurements taken from ChEMBL document CHEMBL1137012, “Structural optimization and biological evaluation of 2-substituted 5-hydroxyindole-3-carboxylates as potent inhibitors of human 5-lipoxygenase” (J Med Chem, 2009).

Experiments:
[1] = target: T1, Polyunsaturated fatty acid 5-lipoxygenase (Homo sapiens, UniProt P09917); experiment: Inhibition of human recombinant 5-lipoxygenase expressed in Escherichia coli assessed as 5LO product formation by cell free assay
T1 sequence (P09917 whole entry): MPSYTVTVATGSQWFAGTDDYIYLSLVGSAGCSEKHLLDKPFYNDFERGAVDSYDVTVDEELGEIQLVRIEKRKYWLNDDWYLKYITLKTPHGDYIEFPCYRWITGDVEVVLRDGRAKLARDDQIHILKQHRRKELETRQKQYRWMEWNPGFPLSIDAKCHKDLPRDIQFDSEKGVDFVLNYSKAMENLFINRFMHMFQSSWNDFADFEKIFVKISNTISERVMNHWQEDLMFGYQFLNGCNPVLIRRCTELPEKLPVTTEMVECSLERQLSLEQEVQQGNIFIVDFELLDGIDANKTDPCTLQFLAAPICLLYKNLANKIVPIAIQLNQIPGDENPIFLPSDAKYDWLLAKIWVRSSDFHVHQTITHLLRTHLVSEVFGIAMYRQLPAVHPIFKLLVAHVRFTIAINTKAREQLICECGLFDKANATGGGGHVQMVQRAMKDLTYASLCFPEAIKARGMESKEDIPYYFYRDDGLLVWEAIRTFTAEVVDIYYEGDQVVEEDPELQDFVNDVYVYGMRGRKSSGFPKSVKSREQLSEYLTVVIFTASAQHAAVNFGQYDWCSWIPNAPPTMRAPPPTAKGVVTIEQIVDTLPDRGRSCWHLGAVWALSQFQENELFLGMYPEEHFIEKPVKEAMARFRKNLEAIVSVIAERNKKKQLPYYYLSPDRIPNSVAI

[2] = target: T1, Polyunsaturated fatty acid 5-lipoxygenase; experiment: Inhibition of 5-lipoxygenase in A-23817-challenged human neutrophils assessed as 5LO product formation by intact cell based assay in presence of exogenous arachidonic acid

Row | SMILES | IC50 [1] [nM] | IC50 [2] [nM]
1 | CCOC(=O)c1c(Cc2cccc(Cl)c2)[nH]c2c1cc(-c1ccccc1)c1ccccc12 | > 30000 | > 30000
2 | CCOC(=O)c1c(CCc2cccc(Cl)c2)[nH]c2c1cc(O)c1ccccc12 | 31 | 490
3 | C=CCNc1[nH]c2ccccc2c1C(=O)OC | > 30000 | > 30000
4 | COC(=O)c1c(Nc2cccc(F)c2)[nH]c2ccccc12 | 13400 | 7900
5 | C=CCN(CC=C)c1[nH]c2ccccc2c1C(=O)OC | 6900 | 12500
6 | CCOC(=O)c1c(Cc2ccc(C(F)(F)F)cc2)[nH]c2c1cc(O)c1ccccc12 | 250 | 1700
7 | CCOC(=O)c1c(Cc2cccc(Cl)c2)[nH]c2cc(-c3ccc(-c4ccccc4)cc3)c(O)cc12 | 330 | 2800
8 | CCOC(=O)c1c(Cc2cccc(Cl)c2)n(C)c2c1cc(OC)c1ccccc12 | > 10000 | > 30000
9 | CCOC(=O)c1c(Cc2cccc(F)c2)[nH]c2c1cc(O)c1ccccc12 | 140 | 340
10 | CCOC(=O)c1c(Cc2ccc(Cl)cc2)n(Cc2ccccc2)c2c1cc(O)c1ccccc12 | 650 | 1800
11 | CCOC(=O)c1c(CCc2ccc(Cl)cc2)[nH]c2c1cc(O)c1ccccc12 | 49 | 2800
12 | CC(=O)N(O)C(=O)/C=C/c1cccc(Oc2ccccc2)c1 | 38 | 160
